Here are results for two compounds from paper PMC6100582, “Asymmetric Primaquine and Halogenaniline Fumardiamides as Novel Biologically Active Michael Acceptors” (Molecules : A Journal of Synthetic Chemistry and Natural …, 2018).

In data set [1] the test system is Staphylococcus aureus ATCC 6538. Put plainly: Antimicrobial susceptibility assay in vitro (MIC determination). The format is cell-based. The conditions noted are these: ATCC6538.
In data set [2] the test system is Acinetobacter baumannii MFBF 10913. The description is as above. The format is cell-based. Particulars: MFBF10913, 18 h. Here is the method: (§1) (b) Other Gram-positive (Streptococcus pneumoniae MFBF 10373, Bacillus cereus ATCC 11778, and Bacillus subtilis ATCC 6633) and Gram-negative bacteria species (Pseudomonas aeruginosa ATCC 27853, Escherichia coli ATCC 10536, Serratia marcescens ATCC 10905, Proteus mirabilis MFBF 10430, Acinetobacter baumannii MFBF 10913, and Salmonella enteritidis MFBF 11945): […] Cell suspensions were prepared from stock cultures using phosphate-buffered saline (PBS) (Gibco Laboratories, USA) pH 7.4 and adjusted to 0.5 McFarland units using a nephelometer (ATB 1550, BioMérieux, France). Stock solutions of the tested compounds were prepared in DMSO (10 mg/mL). […] The absorbance was recorded at 540 nm. As a positive quality control (susceptibility of strains) tetracycline hydrochloride (TC) (Sigma-Aldrich) was added into wells.

Data set [3] relates to Bacillus cereus ATCC 11778. The description is as above. The data set is classed as cell-based. The conditions noted are these: ATCC11778, 18 h. As to the method:
as §1

The subject of data set [4] is Bacillus subtilis ATCC 6633. The data set is described as above. The conditions noted are these: ATCC6633, 18 h. The format is cell-based. As to the method: as §1
Data set [5] concerns Streptococcus pneumoniae MFBF 10373. The description is as above. The conditions noted are these: MFBF10373, 18 h. The format is cell-based. Here is the method: as §1
Data set [6] has as its system Enterococcus faecalis ATCC 29212. The description is as above. The data set is classed as cell-based. The conditions noted are these: ATCC29212, 24 h.
For data set [7], the system named is Mycobacterium tuberculosis H37Ra. The data set is described as follows: Antimycobacterial susceptibility assay (MIC determination). Particulars: 168 h, 7 days, 37 °C, alamarBlue. The data set is classed as cell-based. As to the method: (c) Mycobacteria: Mycobacterium tuberculosis H37Ra ATCC 25177 was grown in Middlebrook broth (MB), supplemented with Oleic-Albumin-Dextrose-Catalase (OADC) supplement (Difco, Lawrence, KS, USA) and mycobactin J (2 μg/mL). At log phase growth, a culture sample (10 mL) was centrifuged at 15,000 rpm/20 min using a bench-top centrifuge (MPW-65R, MPW Med Instruments, Poland). Following removal of the supernatant, the pellet was washed in fresh Middlebrook 7H9GC broth and re-suspended in fresh, ODAC-supplemented MB (10 mL). The turbidity was adjusted to match McFarland standard No. 1 (3 × 10^8 CFU) with MB broth. A further 1:20 dilution of the culture was then performed in MB broth. The antimicrobial susceptibility of M. tuberculosis was investigated in a 96-well plate format. In these experiments, sterile deionised water (300 µl) was added to all outer-perimeter wells of the plates to minimize evaporation of the medium in the test wells during incubation. Each evaluated compound (100 µL) was incubated with M. tuberculosis (100 µl). […] Following incubation, 10% of alamarBlue (Difco, Lawrence, KS, USA) was mixed into each well, and readings at 570 nm and 600 nm were taken, initially for background subtraction and subsequently after 24 h reincubation. […] For non-interfering compounds, a blue colour in the well was interpreted as the absence of growth, and a pink colour was scored as growth.

For data set [8], the system named is Mycobacterium marinum CAMP 5644. The description is as above. The data set is classed as cell-based. The conditions noted are these: CAMP5644, 504 h. Here is the method:
The broth dilution micro-method in Middlebrook 7H9 medium (Difco, Lawrence, KS, USA) supplemented with ADC Enrichment (Becton, Dickinson and Comp.) was used to determine MIC as previously described. […] Bacterial inocula were prepared by transferring colonies from culture to sterile water. The cell density was adjusted to 0.5 McFarland units using a densitometer (Densi-La-Meter, LIAP, Riga, Latvia). The final inoculum was made by 1:1000 dilution of the suspension with sterile water. Drug-free controls, sterility controls and controls consisted of medium and DMSO (Sigma-Aldrich, St. Louis, MO, USA) alone were included. […] Ciprofloxacin (CIP), rifampicin (RIF) and isoniazid (INH) (Sigma-Aldrich, St. Louis, MO, USA) were used as the standards.

The subject of data set [9] is Candida albicans ATCC 90028. Put plainly: In vitro antifungal susceptibility testing (MIC determination). The data set is classed as cell-based. The conditions noted are these: ATCC90028.
A short description of a further data set: in vitro. Particulars: African green monkey.
For another data set, the system named is Vero cell cultures. The conditions noted are these: African green monkey.

≈ marks a conversion by molar mass, not a printed value. Where only a bound is given, the exact number is not on record here.

`COc1cc(NC(C)CCCN)c2ncccc2c1` (centres unmarked) [PQ, primaquine]: the MIC in data set [1] stood at 50 µg/mL (≈ 193 µM); in data set [2], 50 µg/mL (≈ 193 µM); in data set [3], 70 µg/mL (≈ 270 µM); in data set [4], 80 µg/mL (≈ 308 µM); in data set [5], 50 µg/mL (≈ 193 µM); in data set [6], 128 µg/mL (≈ 494 µM). The values for the MIC in [7], in data set [8] and in [9] were 256 µg/mL (≈ 987 µM), 256 µg/mL (≈ 987 µM) and greater than 100 µg/mL, respectively. In addition, the CC50 in “in vitro” is greater than 50 µg/mL.
`NC(=O)c1ncn([C@@H]2O[C@H](CO)[C@@H](O)[C@H]2O)n1` [RIB, ribavirin, reference compound]: the “Cytotoxicity MCC (minimum cytotoxic concentration)” value in the data set with Vero cell cultures is recorded as greater than 250.
